Reference: patent US10087225B2, “Formulation of MK2 inhibitor peptides” (MOERAE MATRIX, INC., priority 2015, dated 2018)

What was measured:
Test in all cases: Kinase Profiling Assay
Assay type in all cases: biochemical
DDR2(h) = DDR2(h) (Homo sapiens, UniProt Q16832)
PDGFRα(h) = PDGFRα(h) (Homo sapiens, UniProt P16234)
Ab1(Y253F)(h) = Ab1(Y253F)(h) (Homo sapiens, UniProt P00519, Y253F)
Fgr(h) = Fgr(h) (Homo sapiens, UniProt P09769)
CaMKIIδ(h) = CaMKIIδ(h) (Homo sapiens, UniProt Q13557)
IRAK1(h) = IRAK1(h) (Homo sapiens, UniProt P51617)
Tie2(R849W)(h) = Tie2(R849W)(h) (Homo sapiens, UniProt Q02763, R849W)
GSK3β(h) = GSK3β(h) (Homo sapiens, UniProt P49841)
PKBβ(h) = PKBβ(h) (Homo sapiens, UniProt P31751)
EGFR(h) = EGFR(h) (Homo sapiens, UniProt P00533)
PKCβI(h) = PKCβI(h) (Homo sapiens, UniProt P05771)
NEK2(h) = NEK2(h) (Homo sapiens, UniProt P51955)
Ab1(h) = Ab1(h) (Homo sapiens, UniProt P00519)
Lck(h) activated = Lck(h) activated (Homo sapiens, UniProt P06239)
SAPK2a(h) = SAPK2a(h) (Homo sapiens, UniProt Q16539)
Pim-3(h) = Pim-3(h) (Homo sapiens, UniProt Q86V86)
Flt3(h) = Flt3(h) (Homo sapiens, UniProt P36888)
Plk3(h) = Plk3(h) (Homo sapiens, UniProt Q9H4B4)
MST1(h) = MST1(h) (Homo sapiens, UniProt Q13043)
CLK2(h) = CLK2(h) (Homo sapiens, UniProt P49760)
Met(D1246N)(h) = Met(D1246N)(h) (Homo sapiens, UniProt P08581, D1228N)
LIMK1(h) = LIMK1(h) (Homo sapiens, UniProt P53667)
PKA(h) = PKA(h) (Homo sapiens, UniProt P17612)
IGF-1R(h) = IGF-1R(h) (Homo sapiens, UniProt P08069)
CDK2/cyclinA(h) = CDK2/cyclinA(h) (Homo sapiens, UniProt P24941)
CDK3/cyclinE(h) = CDK3/cyclinE(h) (Homo sapiens, UniProt Q00526)
MAPK2(h) = MAPK2(h) (Homo sapiens, UniProt P28482)
VRK2(h) = VRK2(h) (Homo sapiens, UniProt Q86Y07)
GRK5(h) = GRK5(h) (Homo sapiens, UniProt P34947)
MRCKβ(h) = MRCKβ(h) (Homo sapiens, UniProt Q9Y5S2)
TBK1(h) = TBK1(h) (Homo sapiens, UniProt Q9UHD2)
Hck(h) = Hck(h) (Homo sapiens, UniProt P08631)
Pim-2(h) = Pim-2(h) (Homo sapiens, UniProt Q9P1W9)
Fyn(h) = Fyn(h) (Homo sapiens, UniProt P06241)
CDK9/cyclin T1(h) = CDK9/cyclin T1(h) (Homo sapiens, UniProt P50750)
PDGFRβ(h) = PDGFRβ(h) (Homo sapiens, UniProt P09619)
Ab1(M351T)(h) = Ab1(M351T)(h) (Homo sapiens, UniProt P00519, M351T)
FAK(h) = FAK(h) (Homo sapiens, UniProt Q05397)
Rse(h) = Rse(h) (Homo sapiens, UniProt Q06418)
FGFR2(h) = FGFR2(h) (Homo sapiens, UniProt P21802)
MSK2(h) = MSK2(h) (Homo sapiens, UniProt O75676)

How did the activity at 100 µM (DDR2(h)) turn out when `CC(C)C[C@H](NC(=O)[C@H](C)NC(=O)[C@H](CCCCN)NC(=O)[C@H](C)NC(=O)[C@H](CCCNC(=N)N)NC(=O)[C@H](C)NC(=O)[C@H](CCC(N)=O)NC(=O)[C@H](CCCNC(=N)N)NC(=O)[C@H](C)NC(=O)[C@H](C)NC(=O)[C@H](C)NC(=O)[C@H](CCCNC(=N)N)NC(=O)[C@H](C)NC(=O)[C@@H](N)Cc1ccc(O)cc1)C(=O)N[C@@H](C)C(=O)N[C@@H](CCCNC(=N)N)C(=O)N[C@@H](CCC(N)=O)C(=O)N[C@@H](CC(C)C)C(=O)NCC(=O)N[C@H](C(=O)N[C@@H](C)C(=O)N[C@@H](C)C(=O)O)C(C)C` [MMI-0100] was run?
The activity at 100 µM was 105%.

What about the activity at 100 µM (PDGFRα(h)) of the same compound?
The activity at 100 µM was 104%.

And the activity at 100 µM (Ab1(Y253F)(h))?
Its activity at 100 µM is 104%.

And the activity at 100 µM (Fgr(h))?
Its activity at 100 µM is 54%.

And the activity at 100 µM (CaMKIIδ(h))?
Its activity at 100 µM is 89%.

And the activity at 100 µM (IRAK1(h))?
The activity at 100 µM was 97%.

What about the activity at 100 µM (Tie2(R849W)(h)) of the same compound?
The activity at 100 µM was 102%.

What about the activity at 100 µM (GSK3β(h)) of the same compound?
Its activity at 100 µM is 113%.

What about the activity at 100 µM (PKBβ(h)) of the same compound?
Its activity at 100 µM is 284%.

And the activity at 100 µM (EGFR(h))?
Its activity at 100 µM is 95%.

What about the activity at 100 µM (PKCβI(h)) of the same compound?
The activity at 100 µM was 88%.

What about the activity at 100 µM (NEK2(h)) of the same compound?
Its activity at 100 µM is 102%.

And the activity at 100 µM (Ab1(h))?
Its activity at 100 µM is 136%.

What about the activity at 100 µM (Lck(h) activated) of the same compound?
Its activity at 100 µM is 106%.

What about the activity at 100 µM (SAPK2a(h)) of the same compound?
The activity at 100 µM was 110%.

And the activity at 100 µM (Pim-3(h))?
The activity at 100 µM was 98%.

What about the activity at 100 µM (Flt3(h)) of the same compound?
The activity at 100 µM was 104%.

And the activity at 100 µM (Plk3(h))?
Its activity at 100 µM is 107%.

What about the activity at 100 µM (MST1(h)) of the same compound?
The activity at 100 µM was 85%.

What about the activity at 100 µM (CLK2(h)) of the same compound?
Its activity at 100 µM is 88%.

And the activity at 100 µM (Met(D1246N)(h))?
The activity at 100 µM was 114%.

And the activity at 100 µM (LIMK1(h))?
The activity at 100 µM was 103%.

What about the activity at 100 µM (PKA(h)) of the same compound?
Its activity at 100 µM is 138%.

What about the activity at 100 µM (IGF-1R(h)) of the same compound?
The activity at 100 µM was 102%.

What about the activity at 100 µM (CDK2/cyclinA(h)) of the same compound?
The activity at 100 µM was 97%.

And the activity at 100 µM (CDK3/cyclinE(h))?
The activity at 100 µM was 106%.

And the activity at 100 µM (MAPK2(h))?
The activity at 100 µM was 98%.

And the activity at 100 µM (VRK2(h))?
Its activity at 100 µM is 112%.

What about the activity at 100 µM (GRK5(h)) of the same compound?
The activity at 100 µM was 117%.

What about the activity at 100 µM (MRCKβ(h)) of the same compound?
Its activity at 100 µM is 103%.

What about the activity at 100 µM (TBK1(h)) of the same compound?
The activity at 100 µM was 106%.

What about the activity at 100 µM (Hck(h)) of the same compound?
The activity at 100 µM was 354%.

And the activity at 100 µM (Pim-2(h))?
Its activity at 100 µM is 117%.

And the activity at 100 µM (Fyn(h))?
The activity at 100 µM was 71%.

And the activity at 100 µM (CDK9/cyclin T1(h))?
The activity at 100 µM was 228%.

And the activity at 100 µM (PDGFRβ(h))?
Its activity at 100 µM is 116%.

What about the activity at 100 µM (Ab1(M351T)(h)) of the same compound?
Its activity at 100 µM is 128%.

What about the activity at 100 µM (FAK(h)) of the same compound?
Its activity at 100 µM is 98%.

What about the activity at 100 µM (Rse(h)) of the same compound?
The activity at 100 µM was 109%.

And the activity at 100 µM (FGFR2(h))?
Its activity at 100 µM is 49%.

And the activity at 100 µM (MSK2(h))?
Its activity at 100 µM is 105%.
